The target in one test is Sucrase-isomaltase (Mus musculus, UniProt B5THE3). In words: Inhibition of sucrase in mouse intestinal […] by glucose release assay.
The target of test [1] is T1, Ceramide glucosyltransferase (Mus musculus, UniProt O88693).
T1 sequence (O88693 whole entry): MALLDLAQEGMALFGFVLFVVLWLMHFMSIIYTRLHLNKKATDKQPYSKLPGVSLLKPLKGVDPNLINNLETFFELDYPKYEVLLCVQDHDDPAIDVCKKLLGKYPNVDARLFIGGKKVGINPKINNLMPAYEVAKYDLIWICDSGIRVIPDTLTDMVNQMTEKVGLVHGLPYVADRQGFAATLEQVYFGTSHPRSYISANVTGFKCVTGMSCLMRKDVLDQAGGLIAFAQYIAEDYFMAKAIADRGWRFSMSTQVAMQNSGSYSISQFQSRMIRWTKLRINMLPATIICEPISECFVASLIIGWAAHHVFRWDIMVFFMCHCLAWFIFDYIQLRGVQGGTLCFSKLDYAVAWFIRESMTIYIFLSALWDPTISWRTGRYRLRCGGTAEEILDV
In words: Inhibition of glucosylceramide synthase in mouse RAW cells preincubated with compound for 15 mins by in-situ enzyme inhibition assay. Format: cell-based.

Amino acid sequences for entries named in this document (tags omitted).
UniProt B5THE3, whole entry: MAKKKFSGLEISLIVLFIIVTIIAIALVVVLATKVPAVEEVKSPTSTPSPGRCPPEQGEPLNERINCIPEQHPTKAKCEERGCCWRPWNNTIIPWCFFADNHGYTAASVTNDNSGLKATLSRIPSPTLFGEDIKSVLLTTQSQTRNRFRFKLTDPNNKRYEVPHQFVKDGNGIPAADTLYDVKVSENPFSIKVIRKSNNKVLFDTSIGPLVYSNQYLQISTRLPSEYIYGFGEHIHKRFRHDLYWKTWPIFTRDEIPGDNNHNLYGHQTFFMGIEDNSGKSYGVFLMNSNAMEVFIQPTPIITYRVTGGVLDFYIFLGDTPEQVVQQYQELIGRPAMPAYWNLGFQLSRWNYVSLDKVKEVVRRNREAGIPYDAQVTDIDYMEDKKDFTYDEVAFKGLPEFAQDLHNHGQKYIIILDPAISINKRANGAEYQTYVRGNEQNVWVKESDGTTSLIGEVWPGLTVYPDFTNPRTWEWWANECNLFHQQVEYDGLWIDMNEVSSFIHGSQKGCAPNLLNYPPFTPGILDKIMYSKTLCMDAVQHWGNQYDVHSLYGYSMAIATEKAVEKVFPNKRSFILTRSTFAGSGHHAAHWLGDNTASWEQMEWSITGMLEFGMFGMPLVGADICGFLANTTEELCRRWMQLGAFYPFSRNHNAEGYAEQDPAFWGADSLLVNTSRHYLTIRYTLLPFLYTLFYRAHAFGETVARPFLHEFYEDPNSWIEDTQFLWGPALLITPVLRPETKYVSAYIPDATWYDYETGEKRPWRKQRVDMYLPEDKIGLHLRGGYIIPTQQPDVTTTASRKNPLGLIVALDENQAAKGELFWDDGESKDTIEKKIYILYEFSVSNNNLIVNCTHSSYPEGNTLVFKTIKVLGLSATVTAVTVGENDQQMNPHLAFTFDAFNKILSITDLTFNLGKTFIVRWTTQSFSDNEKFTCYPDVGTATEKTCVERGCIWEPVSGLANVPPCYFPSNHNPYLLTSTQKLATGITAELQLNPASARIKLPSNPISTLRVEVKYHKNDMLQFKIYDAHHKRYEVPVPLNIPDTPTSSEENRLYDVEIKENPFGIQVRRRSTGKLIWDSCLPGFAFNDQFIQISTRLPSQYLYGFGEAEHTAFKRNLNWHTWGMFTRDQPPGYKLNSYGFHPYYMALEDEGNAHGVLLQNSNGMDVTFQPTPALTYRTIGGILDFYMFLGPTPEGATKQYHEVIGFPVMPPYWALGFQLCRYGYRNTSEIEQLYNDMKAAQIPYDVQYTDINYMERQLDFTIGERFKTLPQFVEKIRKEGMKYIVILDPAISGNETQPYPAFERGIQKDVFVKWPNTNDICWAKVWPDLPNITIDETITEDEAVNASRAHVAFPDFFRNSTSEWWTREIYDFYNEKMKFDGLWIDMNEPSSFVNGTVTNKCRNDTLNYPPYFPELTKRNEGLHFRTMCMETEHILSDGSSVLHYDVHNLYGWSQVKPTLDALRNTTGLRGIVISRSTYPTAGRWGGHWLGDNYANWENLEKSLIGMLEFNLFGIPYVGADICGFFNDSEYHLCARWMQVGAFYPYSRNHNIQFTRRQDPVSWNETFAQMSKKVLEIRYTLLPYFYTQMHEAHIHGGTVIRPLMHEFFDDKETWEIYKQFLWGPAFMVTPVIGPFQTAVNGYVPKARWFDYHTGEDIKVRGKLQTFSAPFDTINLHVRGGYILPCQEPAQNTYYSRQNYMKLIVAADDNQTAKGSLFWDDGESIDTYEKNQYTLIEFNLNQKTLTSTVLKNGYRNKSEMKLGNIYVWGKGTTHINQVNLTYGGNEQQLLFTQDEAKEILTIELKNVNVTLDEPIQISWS

Usually IC50 stands for the point on the concentration scale where inhibition reaches its midpoint.

For `OC[C@H]1[C@@H](O)[C@H](O)[C@@H](O)CN1CCCCCOCC12CC3CC(CC(C3)C1)C2`, the half-inhibitory concentration (IC50) on Sucrase-isomaltase was greater than 1000 µM.

Regarding `CCCCCCCCCN1C[C@H](O)[C@@H](O)[C@H](O)[C@@H]1CO`, the IC50 in test [1] came out at 2 µM.

At Sucrase-isomaltase, `OC[C@@H]1[C@@H](O)[C@H](O)[C@@H](O)CN1CCCCCOCC12CC3CC(CC(C3)C1)C2` showed an IC50 of 0.5 µM.

With `CCCCCCCCCN1C[C@H](O)[C@@H](O)[C@H](O)[C@H]1CO`, in test [1], the IC50 stood at 4 µM.

For the origin of these results see ChEMBL document CHEMBL1649099, “Identification of potent and selective glucosylceramide synthase inhibitors from a library of N-alkylated iminosugars” (ACS Med Chem Lett, 2011).
